The assay deals with Mus musculus. Kind of assay: Anti-psoriatic activity in imiquimod-induced BALB/c mouse model assessed as decrease in psoriasis-like skin lesion at 1 % administered topically. Type of assay: functional, organism-based. The settings on record: Zone of skin, route top.

Calls of active or inactive are those of the source. The calls are words filed in the database; no cut-off is given here.

For the compound `CC(C)c1c(O)cc(/C=C/c2ccccc2)cc1O`, the outcome was Active.
